Measurements: patent US20060160848A1 (priority 2002, published 2006)

What was measured:
[1] = Sequestering of acrolein from buffered solution at 37° C. (HPLC); conditions: 500 μM acrolein, equimolar hydrazine, 30 minutes (Example 29)
[2] = marked (experimental) in column Calculated Log P; cited from earlier work
mouse hepatocytes = assay: Allyl alcohol-induced toxicity in isolated mouse hepatocytes (LDH leakage); conditions: read-out: PC50 (concentration producing a 50% decrease in LDH leakage); @ 60 mins, 0.1 mM AA; N = 4, mean ± SD

NNc1ccc([N+](=O)[O-])cc1[N+](=O)[O-]
acrolein removed from solution [1]: around 40%
Log P (experimental) [2]: 1.46
EC50 (mouse hepatocytes): 21 µM
